# Patent US5643907A, “Pharmaceutical composition containing 5-morpholinomethyl-3-(4-chlorobenzylideneamine)-2-oxazolidinone and its use for the treatment of CNS disorders” (priority 1993, dated 1997)
# System: uptake of serotonin
# Assay: Effect on the uptake of serotonin in vivo (protection from p-chloramphetamine)
# [1] = applied before p-chloramphetamine
compound,measurement,setting,value
"CN(C)CCCC1(c2ccc(F)cc2)OCc2cc(C#N)ccc21 (stereo not drawn) [Citalopram, citalopram]","serotonin, % in relation to the group after p-chloramphetamine",20 mg/kg before p-chloramphetamine (table: before 6-OHDA),155%
same,increase of amine (serotonin) level over the level of control,[1],40%
same,prevention of the decline of the amine level,[1],prevented the decline of the amine level
